Measured values reported in ChEMBL document CHEMBL1250552, “Quantitative structure-activity relationship studies of threo-methylphenidate analogs” (Bioorg Med Chem, 2010).

Sequences of proteins named here, by UniProt entry; tags and fusion partners are left off.
UniProt P23977, whole entry: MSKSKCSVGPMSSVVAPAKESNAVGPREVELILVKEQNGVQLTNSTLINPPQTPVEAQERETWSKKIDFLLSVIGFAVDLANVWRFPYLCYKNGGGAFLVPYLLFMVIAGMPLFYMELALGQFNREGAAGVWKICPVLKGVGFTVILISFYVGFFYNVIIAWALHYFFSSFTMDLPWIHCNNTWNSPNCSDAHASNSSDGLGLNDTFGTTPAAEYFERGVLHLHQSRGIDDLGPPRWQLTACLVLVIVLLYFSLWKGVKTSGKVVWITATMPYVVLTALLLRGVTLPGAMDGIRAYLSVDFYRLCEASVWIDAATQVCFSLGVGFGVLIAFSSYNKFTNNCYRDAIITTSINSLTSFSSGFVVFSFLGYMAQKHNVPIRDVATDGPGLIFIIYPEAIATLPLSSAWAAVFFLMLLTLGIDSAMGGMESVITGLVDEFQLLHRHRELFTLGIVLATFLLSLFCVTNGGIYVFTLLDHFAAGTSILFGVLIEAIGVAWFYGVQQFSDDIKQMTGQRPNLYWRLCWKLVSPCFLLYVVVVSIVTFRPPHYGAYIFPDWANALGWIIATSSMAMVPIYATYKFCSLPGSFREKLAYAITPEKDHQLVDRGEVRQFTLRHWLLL

Molecular target: Sodium-dependent dopamine transporter (Rattus norvegicus, UniProt P23977)
Assay: Displacement of [3H]WIN 35428 from Sprague-Dawley rat striatal tissue after 2 hrs by liquid scintillation counting
Type: tissue-based, Striatum
Outline: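 Male Sprague–Dawley rats anesthetized with CO₂ gas. Crude synaptosomal P₂ fraction made from striatum and homogenized in 25 mM sodium phosphate, pH 7.7, at 0 °C. Rapid filtration through glass microfiber filters, then scintillation counting.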

COC(=O)[C@H](c1ccc(C(C)(C)C)cc1)[C@H]1CCCCN1
IC50: 13.5 µM
